Consider one substance from patent US20150320823A1, “NOVEL USE OF RICE, RICE BRAN OR RICE HULL EXTRACT AS AN HISTAMINE RECEPTOR ANTAGONIST” (KOREA FOOD RESEARCH INSTITUTE, priority 2011, published 2015).

The assay relates to histamine receptor. The assay is described as follows: Sleep-improving mechanism: pentobarbital sleep test with histamine receptor agonist PD. To be noted: mouse, in vivo.

As for pyrilamine maleate salt [PMS], the “effect of histamine receptor agonist PD on the sleep-improving effect (sleep latency, sleep duration)” value is “completely inhibited by PD”.
